# Measured affinities in a library of Ab-14 heavy chain variants

Reference: Li et al. 2023, doi:10.1038/s41467-023-39022-2. File: FLAb, binding data.

Target: peptide PDVDLGDISGINAS, taken from heptad repeat 2 (HR2) of SARS-CoV-2 spike.

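The starting antibody came from a phage panning campaign against this peptide. This is the validation round: designs drawn from the data on random variants, tested in the same kind of assay. Their group label is 14H_En_HC (En: ensemble of fine-tuned language models; HC: hill climbing; a sequence that several methods proposed may carry one label only). Affinity was read by AlphaSeq, a pooled yeast mating assay with surface-displayed partners. Pairs that bind mate more often; barcode pairs of the diploids are counted by sequencing. The ratio of observed to expected reads was calibrated, replicate by replicate, on BCL2-family standards whose Kd was known from biolayer interferometry. Mating was done six times.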

Each scFv is VH, the linker GGGGSGGGGSGGGGS, VL, as in the parent Ab-14, and differs from it in the CDRs of the heavy chain only.
VH: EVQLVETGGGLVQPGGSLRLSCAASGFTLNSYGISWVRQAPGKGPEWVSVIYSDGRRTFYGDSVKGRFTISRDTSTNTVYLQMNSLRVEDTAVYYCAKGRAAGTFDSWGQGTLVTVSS
VL: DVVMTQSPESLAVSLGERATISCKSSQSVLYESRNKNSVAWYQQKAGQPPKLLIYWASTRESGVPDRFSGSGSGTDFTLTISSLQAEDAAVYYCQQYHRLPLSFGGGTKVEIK

Each variant is given by its three heavy chain CDRs, as the data file delimits them; those of the parent are GFTLNSYGIS, VIYSDGRRTFYGDSVK, GRAAGTFDS.
Values are log10 of the apparent Kd in nM; lower means stronger binding.
"n.d." means that the variant was in the library but no mating with the target was seen in that replicate; the authors take this as a sign of poor binding, and no number exists.
Three control strains display no target. For all heavy chain designs, 1% of the pairings with them gave a signal, with a median of 2.08 and one signal in twenty below 0.84, so weak values seen in few replicates may be background. The control count says in how many pairings with the empty strains this scFv gave a signal, with their mean in brackets.
The parent sequence was in this pool as ten entries: three were never detected, three once, and four in most replicates, with averages from 0.34 to 2.37.
In the paper, a design with two or fewer of six values counts as a poor binder.
The range of this assay differs from that of the first round, and the authors advise against merging the two.

| # | CDR-H1 | CDR-H2 | CDR-H3 | log10 Kd (nM) by replicate | empty controls |
|---|---|---|---|---|---|
| 1 | GFNLDEYGIS | VIYADGMRTFYADSVK | GSHAGTFDT | 0.08 0.47 -0.21 -0.20 -0.46 -0.28 | 0 of 18 |
| 2 | GFDLNEYGIS | VIYADGRRTFYVDSVK | GANAGTFDV | -0.49 -0.62 -0.53 -0.72 -0.58 -0.61 | 1 of 18 (2.74) |
| 3 | GFNLDEYGIS | VIYADGRRTFYADSVK | GSHAGTFDL | -0.78 -0.89 -0.29 -1.29 -1.14 -0.60 | 0 of 18 |
| 4 | GFDLNEYGIS | VIYADGRRTFYADSVK | GNAAGTFDS | 0.12 0.18 0.44 0.30 0.32 0.32 | 0 of 18 |
| 5 | GFDLNEYGIS | VIYADGKRTFYADSVK | GEAAGTFDS | -0.06 -0.36 -0.36 -0.39 -0.37 0.15 | 0 of 18 |
| 6 | GFDLNEYGIS | VIYADGMRTFYADSVK | GQLAGTFDE | -0.52 -0.69 -0.82 -0.72 -0.66 -0.58 | 0 of 18 |
| 7 | GFDLNEYGIS | VIYADGRRTAYLDSVK | GETAGTFDS | 1.69 -0.89 0.22 0.15 -0.70 0.17 | 0 of 18 |
| 8 | GFDLNEYGIS | VIYADGSRTFYADSVK | GQTAGTFDA | -0.15 -0.76 0.06 0.00 -0.01 -0.41 | 0 of 18 |
| 9 | GFDLNEYGIS | VIYADGRRTFYADSVK | GKNAGTFEV | -0.48 -0.40 -0.38 -0.59 -0.42 -0.58 | 0 of 18 |
| 10 | GFNLNEYGIS | VIYADGRRTFYSDSVK | GEAAGTFDL | 0.30 0.49 0.02 -0.28 -0.27 0.08 | 0 of 18 |
| 11 | GFSLDEYGIS | VIYADGRRTAYADSVK | GNSAGTFDS | 0.89 0.47 0.25 0.12 0.42 0.82 | 0 of 18 |
| 12 | GFDLNEYGIS | VIYADGVRTFYVDSVK | GETAGTFDE | -0.21 -0.59 -0.53 -0.62 -0.25 -0.05 | 0 of 18 |
| 13 | GFDLNEYGIS | VIYADGRRTFYADSVK | GKLAGTFDQ | -0.62 -0.50 -0.79 -0.44 -0.85 -0.77 | 0 of 18 |
| 14 | GFNLEDYGIS | VIYADGRRTFYVDSVK | GKVAGTFDL | 0.27 0.20 0.22 -0.33 -0.09 0.38 | 0 of 18 |
| 15 | GFELDEYGIS | VIYADGRRTFYADSVK | GENAGTFLM | 1.17 0.60 0.48 1.43 1.34 1.48 | 0 of 18 |
| 16 | GFDLEEYGIS | VIYADGRRTFYSDSVK | GEAAGTFDM | -0.10 0.13 -0.02 -0.23 0.40 0.54 | 0 of 18 |
| 17 | GFDLNEYGIS | VIYADGVRTFYADNVK | GNVAGTFDQ | -0.57 -0.53 -1.12 -1.08 -0.45 -0.66 | 1 of 18 (1.98) |
| 18 | GFDLDEYGIS | VIYADGRRTFYADSVK | GENAGTFLS | 0.47 0.41 0.41 0.52 0.50 0.88 | 1 of 18 (2.75) |
| 19 | GFDLNEYGIS | VIYADGRRTFYADSVK | GNVAGTFFT | 1.51 1.49 1.65 1.48 1.23 1.86 | 0 of 18 |
| 20 | GFDLNEYGIS | VIYADGQRTFYADSVK | GEIAGTFDQ | -0.44 -0.88 -0.79 -0.85 -1.03 -0.83 | 0 of 18 |
| 21 | GFDLNEYGIS | VIYADGRRTQYIDSVK | GEAAGTFDV | -0.71 -0.68 -0.21 -1.05 -0.54 -0.42 | 0 of 18 |
| 22 | GFNLNEYGIS | VIYADGVRSFYSDSVK | GEAAGTFDV | -0.33 -0.42 -0.46 -0.69 -0.40 -0.28 | 1 of 18 (2.16) |
| 23 | GFDLNEYGIS | VIYADGRRTFYVDSVK | GQNAGTFDV | -0.75 -0.36 0.03 0.08 -0.77 -0.54 | 0 of 18 |
| 24 | GFDLNEYGIS | VIYADGRRTFYSDSVK | GENAGFFDM | n.d. n.d. n.d. n.d. n.d. n.d. | 0 of 18 |
| 25 | GFDLNEYGIS | VIYADGRRTFYIDSVK | GTAAGTFDQ | -0.08 -0.17 -0.27 -0.43 -0.57 -0.23 | 0 of 18 |
| 26 | GFDIDEYGIS | VIYADGMRTFYADSVK | GEAAGTFDA | -0.07 0.06 -0.43 -0.67 -0.13 -0.24 | 0 of 18 |
| 27 | GFDLNEYGIS | VIYADGRRTAYLDSVK | GEAAGTFDV | 0.15 0.19 -0.30 0.26 -0.06 0.35 | 0 of 18 |
| 28 | GFNLNEYGIS | VIYADGRRTFYADSVK | GQIAGTFDV | -0.50 -0.95 -0.99 -0.89 -0.58 0.15 | 0 of 18 |
| 29 | GFDLNEYGIS | VIYADGRRTFYADSVK | GEAAGTFNT | 1.54 0.76 1.24 0.61 0.34 0.81 | 0 of 18 |
| 30 | GFDLNEYGIS | VIYADGRRTFYSDSVK | GKVAGTFDK | -0.31 -0.33 -0.18 -0.19 -0.12 -0.39 | 0 of 18 |
| 31 | GFDLNEYGIS | VIYADGRRTSYADSVK | GEAAGTFNV | 1.82 0.62 0.87 0.60 0.98 1.25 | 0 of 18 |
| 32 | GFDLNEYGIS | VIYADGRRTFYADSVK | GEAAGTFFI | n.d. n.d. n.d. 0.87 n.d. n.d. | 0 of 18 |
| 33 | GFDLEDYGIS | VIYADGRRTFYADSVK | GNVAGTFDL | -0.91 -1.03 -1.40 -1.49 -1.08 -0.62 | 0 of 18 |
| 34 | GFDLNEYGIS | VIYADGRRTFYDDSVK | GESAGTFDQ | 0.50 0.23 0.66 0.28 -0.25 0.34 | 0 of 18 |
| 35 | GFDLEDYGIS | VIYADGRRTAYIDSVK | GEVAGTFDV | -0.78 -1.10 -0.75 -0.85 -1.04 -0.71 | 0 of 18 |
| 36 | GFDLNEYGIS | VIYADGMRTFYDDSVK | GQLAGTFDQ | -0.24 -0.22 -0.27 -0.36 -0.50 -0.24 | 1 of 18 (2.21) |
| 37 | GFDLNEYGIS | VIYADGRRTFYADSVK | GTAAGTFDI | -0.45 -0.54 -0.41 -0.78 -0.77 -0.37 | 0 of 18 |